Test [1] concerns the target T1, human PAC1 receptor (Homo sapiens, UniProt P41586).
T1 construct: SHSY-5Y (human neuroblastoma cell line) and RG-2 (rat glioma cell line) cells endogenously express human and rat PAC1 receptors, respectively; endogenous in cells; host or cells: SHSY-5Y human neuroblastoma cells
T1 sequence (P41586 21-468): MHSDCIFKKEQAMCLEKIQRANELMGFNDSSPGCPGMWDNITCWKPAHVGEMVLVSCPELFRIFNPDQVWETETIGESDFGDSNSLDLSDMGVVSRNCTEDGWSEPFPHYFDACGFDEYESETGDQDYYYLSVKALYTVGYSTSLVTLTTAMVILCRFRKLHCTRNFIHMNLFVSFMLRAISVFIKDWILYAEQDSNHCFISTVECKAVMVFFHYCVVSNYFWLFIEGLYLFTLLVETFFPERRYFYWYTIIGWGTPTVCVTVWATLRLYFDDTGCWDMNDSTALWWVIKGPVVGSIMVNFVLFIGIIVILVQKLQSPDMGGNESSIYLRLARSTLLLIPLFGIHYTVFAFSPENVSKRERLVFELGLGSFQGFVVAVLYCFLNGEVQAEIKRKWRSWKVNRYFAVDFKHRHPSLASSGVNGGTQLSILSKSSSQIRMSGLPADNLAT
The experiment in a line: LANCE Ultra cAMP accumulation antagonist assay in SHSY-5Y cells.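 Also: inhibition of cAMP accumulation evoked by PAC1 agonist at its EC80 in SHSY-5Y cells endogenously expressing receptor, 30 min preincubation then 15 min agonist, TR-FRET readout.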 It counts as cell-based. (In general: In TR-FRET formats the signal depends on donor and acceptor labels being close together.)

The target in test [2] is T2, rat PAC1 receptor (Rattus norvegicus, UniProt P32215).
T2 construct: SHSY-5Y (human neuroblastoma cell line) and RG-2 (rat glioma cell line) cells endogenously express human and rat PAC1 receptors, respectively; endogenous in cells; host or cells: RG-2 rat glioma cells
T2 sequence (P32215 20-523): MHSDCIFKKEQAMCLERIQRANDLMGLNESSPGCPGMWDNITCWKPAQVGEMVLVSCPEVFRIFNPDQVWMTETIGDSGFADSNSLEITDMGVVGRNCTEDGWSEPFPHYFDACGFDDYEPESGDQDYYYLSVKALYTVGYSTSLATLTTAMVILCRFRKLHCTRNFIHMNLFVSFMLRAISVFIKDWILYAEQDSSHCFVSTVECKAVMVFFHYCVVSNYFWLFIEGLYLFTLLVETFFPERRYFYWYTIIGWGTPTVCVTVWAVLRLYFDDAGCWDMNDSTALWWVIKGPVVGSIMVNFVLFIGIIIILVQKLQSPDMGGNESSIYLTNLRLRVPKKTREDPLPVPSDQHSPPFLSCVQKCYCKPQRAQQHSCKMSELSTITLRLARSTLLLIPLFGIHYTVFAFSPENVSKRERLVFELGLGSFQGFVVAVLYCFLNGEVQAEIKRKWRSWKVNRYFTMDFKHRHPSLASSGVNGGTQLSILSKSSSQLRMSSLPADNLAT
The test is described as follows: LANCE Ultra cAMP accumulation antagonist assay in RG-2 cells.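 Also: RG-2 rat glioma cells endogenously expressing PAC1, test peptide preincubated 30 min, then PAC1 agonist added at its EC80 for 15 min, cAMP accumulation read by LANCE Ultra.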 It counts as cell-based.

SMILES strings stand for the structures.

In general, IC50 refers to the concentration needed to halve the response being measured. Low readings indicate inhibition by little substance, high ones a need for much substance.

As for `CCCC[C@H](NC(=O)[C@@H]1CSSC[C@H](NC(=O)[C@H](CC(=O)O)NC(=O)[C@H](CC(=O)O)NC(=O)[C@@H](NC(=O)[C@H](C)NC(=O)[C@H](CCCCN)NC(=O)[C@H](CCCNC(=N)N)NC(=O)[C@H](Cc2ccccc2)NC(=O)[C@H](CCC(N)=O)NC(=O)[C@@H]2CSSC[C@H](N)C(=O)N[C@@H](CC(=O)O)C(=O)N[C@@H](C)C(=O)N[C@@H]([C@@H](C)O)C(=O)N2)[C@@H](C)CC)C(=O)N[C@@H](CC(=O)O)C(=O)N[C@@H](CCCCN)C(=O)N[C@@H](CCC(N)=O)C(=O)N[C@@H](C)C(=O)N[C@@H](Cc2c[nH]cn2)C(=O)N[C@@H](Cc2c[nH]cn2)C(=O)N[C@@H](CO)C(=O)N[C@@H](CC(N)=O)C(=O)N[C@@H](C(C)C)C(=O)N2CCC[C@H]2C(=O)NCC(=O)N[C@@H](CC(N)=O)C(=O)N[C@@H](CO)C(=O)N[C@@H](C(C)C)C(=O)N[C@@H](Cc2ccccc2)C(=O)N[C@@H](CCCCN)C(=O)NC(C)(C)C(=O)N1)C(=O)N[C@@H](CCCCN)C(=O)N[C@@H](CCC(N)=O)C(=O)N[C@@H](CCCCN)C(=O)N[C@@H](CCCCN)C(=O)N[C@@H](CCCCN)C(=O)N[C@@H](CCC(=O)O)C(=O)N[C@@H](Cc1ccccc1)C(=O)N[C@@H](CCCCN)C(N)=O` [compound 261], the IC50 fell in the range of 1 to 100 nM in test [1] and 0.01 to 1 nM in test [2].
As to `CC[C@H](C)[C@H](NC(=O)[C@H](C)NC(=O)[C@H](CCCCN)NC(=O)[C@H](CCCNC(=N)N)NC(=O)[C@H](Cc1ccccc1)NC(=O)[C@H](CCC(N)=O)NC(=O)[C@@H]1CSSC[C@H](N)C(=O)N[C@@H](CC(=O)O)C(=O)N[C@@H](C)C(=O)N[C@@H]([C@@H](C)O)C(=O)N1)C(=O)N[C@@H](CC(=O)O)C(=O)N[C@@H](CC(=O)O)C(=O)N[C@H]1CSSC[C@@H](C(=O)N[C@@H](CCSC)C(=O)N[C@@H](CCCCN)C(=O)N[C@@H](CCC(N)=O)C(=O)N[C@@H](CCCCN)C(=O)N[C@@H](CCCCN)C(=O)N[C@@H](CCCCN)C(=O)N[C@@H](CCC(=O)O)C(=O)N[C@@H](Cc2ccccc2)C(=O)N[C@@H](CCCCN)C(N)=O)NC(=O)C(C)(C)NC(=O)[C@H](CCCCN)NC(=O)[C@H](Cc2ccccc2)NC(=O)[C@H](CO)NC(=O)[C@H](CC(N)=O)NC(=O)CNC(=O)[C@@H]2CCCN2C(=O)[C@H](C(C)C)NC(=O)[C@H](CC(N)=O)NC(=O)[C@H](CO)NC(=O)[C@H](Cc2c[nH]cn2)NC(=O)[C@H](Cc2c[nH]cn2)NC(=O)[C@H](C)NC(=O)[C@H](CCC(N)=O)NC(=O)[C@H](CCCCN)NC(=O)[C@H](CC(=O)O)NC1=O` [compound 270], the IC50 fell in the range of 1 to 100 nM in test [1] and 0.01 to 1 nM in test [2].
`CCCC[C@H](NC(=O)[C@@H]1CSSC[C@H](NC(=O)[C@H](CC(=O)O)NC(=O)[C@H](CC(=O)O)NC(=O)[C@@H](NC(=O)[C@H](C)NC(=O)[C@H](CCCCN)NC(=O)[C@H](CCCNC(=N)N)NC(=O)[C@H](Cc2ccccc2)NC(=O)[C@H](CCC(N)=O)NC(=O)[C@@H]2CSSC[C@H](N)C(=O)N[C@@H](CC(=O)O)C(=O)N[C@@H](C)C(=O)N[C@@H]([C@@H](C)O)C(=O)N2)[C@@H](C)CC)C(=O)N[C@@H](CC(=O)O)C(=O)N[C@@H](CCCCN)C(=O)N[C@@H](CCC(N)=O)C(=O)N[C@@H](C)C(=O)N[C@@H](Cc2c[nH]cn2)C(=O)N[C@@H](Cc2c[nH]cn2)C(=O)N[C@@H](CO)C(=O)N[C@@H](CO)C(=O)N[C@@H](Cc2ccccc2)C(=O)N[C@@H](CCCCN)C(=O)N[C@@H](CCC(=O)O)C(=O)N1)C(=O)N[C@@H](CCCCN)C(=O)N[C@@H](CCC(N)=O)C(=O)N[C@@H](CCCCN)C(=O)N[C@@H](CCCCN)C(=O)N[C@@H](CCCCN)C(=O)N[C@@H](CCC(=O)O)C(=O)N[C@@H](Cc1ccccc1)C(=O)N[C@@H](CCCCN)C(N)=O` [compound 219]: the IC50 in test [1] and in test [2] was 1 to 100 nM in each case.
For the compound `CC[C@H](C)[C@H](NC(=O)[C@H](C)NC(=O)[C@H](CCCCN)NC(=O)[C@H](CCCNC(=N)N)NC(=O)[C@H](Cc1ccccc1)NC(=O)[C@H](CCC(N)=O)NC(=O)[C@H](CO)NC(=O)[C@@H](NC(=O)[C@@H]1CCCN1C(=O)[C@H](CC(=O)O)NC(=O)[C@@H](N)CO)[C@@H](C)O)C(=O)N[C@@H](CC(=O)O)C(=O)N[C@@H](CC(=O)O)C(=O)N[C@H]1CSSC[C@@H](C(=O)N[C@@H](CCSC)C(=O)N[C@@H](CCCCN)C(=O)N[C@@H](CCC(N)=O)C(=O)N[C@@H](CCCCN)C(=O)N[C@@H](CCCCN)C(=O)N[C@@H](CCCCN)C(=O)N[C@@H](CCC(=O)O)C(=O)N[C@@H](Cc2ccccc2)C(=O)N[C@@H](CCCCN)C(=O)N[C@@H](C)C(=O)NCC(N)=O)NC(=O)C(C)(C)NC(=O)[C@H](CCCCN)NC(=O)[C@H](Cc2ccccc2)NC(=O)[C@H](C(C)C)NC(=O)[C@H](CO)NC(=O)CNC(=O)[C@@H]2CCCN2C(=O)[C@H](C(C)C)NC(=O)[C@H](CC(N)=O)NC(=O)[C@H](CO)NC(=O)[C@H](Cc2c[nH]cn2)NC(=O)[C@H](Cc2c[nH]cn2)NC(=O)[C@H](C)NC(=O)[C@H](CCC(N)=O)NC(=O)[C@H](CCCCN)NC(=O)[C@H](CCC(N)=O)NC1=O` [compound 213], the concentration for half-maximal inhibition (IC50) in test [1] is 1 to 100 nM; in test [2], 0.01 to 1 nM.
In the case of `CC[C@H](C)[C@H](NC(=O)[C@H](C)NC(=O)[C@H](CCCCN)NC(=O)[C@H](CCCNC(=N)N)NC(=O)[C@H](Cc1ccccc1)NC(=O)[C@H](CCC(N)=O)NC(=O)[C@@H]1CSSC[C@H](N)C(=O)N[C@@H](CC(=O)O)C(=O)N[C@@H](C)C(=O)N[C@@H]([C@@H](C)O)C(=O)N1)C(=O)N[C@@H](CC(=O)O)C(=O)N[C@@H](CC(=O)O)C(=O)N[C@H]1CSSC[C@@H](C(=O)N[C@@H](CCSC)C(=O)N[C@@H](CCCCN)C(=O)N[C@@H](CCC(N)=O)C(=O)N[C@@H](CCCCN)C(=O)N[C@@H](CCCCN)C(=O)N[C@@H](CCCCN)C(=O)N[C@@H](CCC(=O)O)C(=O)N[C@@H](Cc2ccccc2)C(=O)N[C@@H](CCCCN)C(=O)N[C@@H](C)C(=O)NCC(N)=O)NC(=O)C(C)(C)NC(=O)[C@H](CCCCN)NC(=O)[C@H](Cc2ccccc2)NC(=O)[C@H](C(C)C)NC(=O)CNC(=O)CNC(=O)[C@@H]2CCCN2C(=O)[C@H](C(C)C)NC(=O)[C@H](CC(N)=O)NC(=O)[C@H](CO)NC(=O)[C@H](Cc2c[nH]cn2)NC(=O)[C@H](Cc2c[nH]cn2)NC(=O)[C@H](C)NC(=O)[C@H](CCC(N)=O)NC(=O)[C@H](CCCCN)NC(=O)[C@H](CCC(N)=O)NC1=O` [compound 209], the IC50 in test [2] was 0.01 to 1 nM.
`CC[C@H](C)[C@H](NC(=O)[C@H](C)NC(=O)[C@H](CCCCN)NC(=O)[C@H](CCCNC(=N)N)NC(=O)[C@H](Cc1ccccc1)NC(=O)[C@H](CCC(N)=O)NC(=O)[C@@H]1CSSC[C@H](N)C(=O)N[C@@H](CC(=O)O)C(=O)N[C@@H](C)C(=O)N[C@@H]([C@@H](C)O)C(=O)N1)C(=O)N[C@@H](CC(=O)O)C(=O)N[C@@H](CC(=O)O)C(=O)N[C@H]1CSSC[C@@H](C(=O)N[C@@H](CCSC)C(=O)N[C@@H](CCCCN)C(=O)N[C@@H](CCC(N)=O)C(=O)N[C@@H](CCCCN)C(=O)N[C@@H](CCCCN)C(=O)N[C@@H](CCCCN)C(=O)N[C@@H](CCC(=O)O)C(=O)N[C@@H](Cc2ccccc2)C(=O)N[C@@H](CCCCN)C(=O)N[C@@H](C)C(=O)NCC(N)=O)NC(=O)C(C)(C)NC(=O)[C@H](CCCCN)NC(=O)[C@H](Cc2ccccc2)NC(=O)[C@H](CO)NC(=O)[C@H](CC(N)=O)NC(=O)CNC(=O)[C@@H]2CCCN2C(=O)[C@H](C(C)C)NC(=O)[C@H](CC(N)=O)NC(=O)[C@H](CO)NC(=O)[C@H](Cc2c[nH]cn2)NC(=O)[C@H](Cc2c[nH]cn2)NC(=O)[C@H](C)NC(=O)[C@H](CCC(N)=O)NC(=O)[C@H](CCCCN)NC(=O)[C@H](CCC(N)=O)NC1=O` [compound 186] displayed an IC50 in test [2] of 0.01 to 1 nM.
